Laboratory results as given in article PMC12022901 (Frontiers in Pharmacology, 2025).

Tests used:
[1] = Pharmacokinetics of factor Xa inhibitors at baseline and at pregabalin steady-state (open-label fixed-sequence DDI trial); settings: for AUC(0-inf) / Cmax: human, in vivo, po, GM
From the text: (§1) A p-value < 0.05 was considered significant.

[2] = Pharmacokinetics of factor Xa inhibitors at baseline and at gabapentin steady-state (open-label fixed-sequence DDI trial); settings: for AUC(0-inf) / Cmax: human, in vivo, po, GM
From the text: as §1

clinical = settings: for CL/F / t1/2 / Vd/F / Tmax / AUC(0-inf) / Cmax: GM; for Vd/F / Tmax / AUC(0-inf) / Cmax: human, in vivo; for Vd/F: Vz/F
[3] = 60 mg, single oral 60 mg edoxaban, during pregabalin steady-state
[4] = oral microdose cocktail, before pregabalin
[5] = oral microdose cocktail, during pregabalin steady-state
[6] = 60 mg, single oral 60 mg edoxaban, during gabapentin steady-state
[7] = oral microdose cocktail, baseline
[8] = oral microdose cocktail, during gabapentin steady-state
[9] = 60 mg, 60 mg edoxaban, at carbamazepine steady-state
[10] = po, oral microdose cocktail, during carbamazepine steady-state
[11] = po, oral microdose cocktail, baseline
[12] = po, oral microdose cocktail, at carbamazepine steady-state

CN1CCc2nc(C(=O)N[C@@H]3C[C@@H](C(=O)N(C)C)CC[C@@H]3NC(=O)C(=O)Nc3ccc(Cl)cn3)sc2C1 [Edoxaban, edoxaban]
effect on exposure ([1]; 60 mg edoxaban, pregabalin steady-state): did neither affect the exposure; also recorded: did not alter the exposure; also recorded: did not change the exposure
AUC(0-inf) ([1]; 60 mg, single oral 60 mg edoxaban, before pregabalin, N=12): 1120 ng·h/mL
AUC(0-inf) [1, 3]: 1050 ng·h/mL
Cmax ([1]; 60 mg, single oral 60 mg edoxaban, before pregabalin): 170 ng/mL
Cmax [1, 3]: 161 ng/mL
AUC(0-inf) [1, 4]: 1.18 ng·h/mL
AUC(0-inf) [1, 5]: 1.12 ng·h/mL
Cmax [1, 4]: 0.148 ng/mL
Cmax [1, 5]: 0.15 ng/mL
effect on exposure ([2]; 60 mg edoxaban, gabapentin steady-state): did neither affect the exposure; also recorded: did not alter the exposure; also recorded: did not change the exposure
AUC(0-inf) ([2]; 60 mg, single oral 60 mg edoxaban, baseline, N=11): 1250 ng·h/mL
AUC(0-inf) [2, 6]: 1220 ng·h/mL
Cmax ([2]; 60 mg, single oral 60 mg edoxaban, baseline): 227 ng/mL
Cmax [2, 6]: 182 ng/mL
AUC(0-inf) [2, 7]: 0.833 ng·h/mL
AUC(0-inf) [2, 8]: 0.933 ng·h/mL
Cmax [2, 7]: 0.112 ng/mL
Cmax [2, 8]: 0.118 ng/mL
CL/F (clinical; 60 mg edoxaban, at carbamazepine steady-state): 87 L/h
CL/F (clinical; 60 mg edoxaban, baseline): 42 L/h
t1/2 (clinical; 60 mg edoxaban, baseline): 7.2 h
range of exposure changes caused by carbamazepine between individuals (clinical; edoxaban): 3.1 fold
minimum exposure during carbamazepine, of baseline exposure (clinical; edoxaban, individual minimum): 26%
Vd/F (clinical; [9]): 918 L
Vd/F (clinical; 60 mg, 60 mg edoxaban, baseline): 432 L
Tmax (clinical; 60 mg, 60 mg edoxaban tablet, baseline): 1.12 h
Tmax (clinical; [9]): 1.07 h
AUC(0-inf) (clinical; po, 60 mg, single oral 60 mg edoxaban, baseline, N=12): 1440 ng·h/mL
AUC(0-inf) (clinical; po, 60 mg, single oral 60 mg edoxaban, during carbamazepine steady-state, N=12): 687 ng·h/mL
Cmax (clinical; po, 60 mg, single oral 60 mg edoxaban, during carbamazepine steady-state): 127 ng/mL
AUC(0-inf) (clinical; po, oral microdose cocktail (25 µg apixaban, 50 µg edoxaban, 25 µg rivaroxaban), baseline): 0.883 ng·h/mL
AUC(0-inf) (clinical; [10]): 0.517 ng·h/mL
Cmax (clinical; [11]): 0.119 ng/mL
Cmax (clinical; [10]): 0.083 ng/mL
Vd/F (clinical; [12]): 562 L
Vd/F (clinical; [11]): 403 L
Tmax (clinical; [12]): 1.48 h
CL/F (clinical; oral microdose cocktail, at carbamazepine steady-state): 96 L/h
CL/F (clinical; [7]): 56 L/h
t1/2 (clinical; [7]): 4.97 h

“Also recorded” adds a separate entry of the source.
